# Measurements: PubChem BioAssay AID2516 (University of Pittsburgh Molecular Library Screening Center, 2010)
# The entries are a selection whose mix differs from that of the whole data set. The source made the active and inactive calls.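 Rule for the calls: active = at least 50% inhibition in the glucose-6-phosphate dehydrogenase coupled counterscreen; inconclusive = no clear call, values can overlap the other calls; inactive = inhibition below 50%.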
# Test system: glucose-6-phosphate dehydrogenase [Leuconostoc mesenteroides]
# Test: Leuconostoc G6PDH inhibition, confirmation, counter-screen for TbHK1 inhibitor project, biochemical, DPI cherry-picked compounds, single concentration (AID 2516)
# Settings: purified G6PDH, NADH absorbance, 1 h; at 10 µM; hits give high values
# Summary of the method: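 Material: Purified G6PDH enzyme in a coupled counterscreen format | Input: G6PDH enzyme at 0.006 mU/µL final | Also added: 0.2 mM G6P plus 0.6 mM NAD+ | Dosing: One dose, 10 µM | Schedule: 1 h reaction, room temperature | Measured by: Absorbance, mix-and-read, after quench with 50 mM EDTA final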
smiles,measurement,value
O=P(Nc1nccs1)(c1ccccc1)c1nc2ccccc2s1 (stereo unspecified),inhibition,inactive: -11.5%
